Test results reported in ChEMBL document CHEMBL6134772, “Inhibition of monoamine oxidases by heterocyclic derived conjugated dienones: synthesis and in vitro and in silico investigations” (RSC Med Chem, 2025).

Amino acid sequences for entries named in this document (tags omitted).
UniProt P27338, whole entry: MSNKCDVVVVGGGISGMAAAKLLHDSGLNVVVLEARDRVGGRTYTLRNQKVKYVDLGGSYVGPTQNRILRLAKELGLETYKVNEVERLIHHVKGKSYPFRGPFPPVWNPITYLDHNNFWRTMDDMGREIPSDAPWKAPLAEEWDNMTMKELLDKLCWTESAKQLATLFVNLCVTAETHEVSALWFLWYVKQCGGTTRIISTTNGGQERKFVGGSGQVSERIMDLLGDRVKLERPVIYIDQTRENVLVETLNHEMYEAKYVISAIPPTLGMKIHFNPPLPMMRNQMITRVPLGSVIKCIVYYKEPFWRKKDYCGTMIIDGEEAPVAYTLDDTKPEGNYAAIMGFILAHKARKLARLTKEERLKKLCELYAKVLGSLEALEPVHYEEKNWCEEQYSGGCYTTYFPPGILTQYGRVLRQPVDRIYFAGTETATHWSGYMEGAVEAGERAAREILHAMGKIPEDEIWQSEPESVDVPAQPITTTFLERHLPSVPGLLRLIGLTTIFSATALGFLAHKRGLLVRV

Assays:
[1] = target: T1, Amine oxidase [flavin-containing] B (Homo sapiens, UniProt P27338); assay: Inhibition of recombinant human MAO-B expressed in baculovirus infected BTI insect cells assessed as residual activity at 2 times IC50 using benzylamine as substrate measured after 30 mins relative to control; details: 0.5 h
[2] = target: T1, Amine oxidase [flavin-containing] B; assay: Irreversible inhibition of recombinant human MAO-B expressed in baculovirus infected BTI insect cells assessed as recovery of enzyme activity by measuring residual activity at 2 times IC50 using benzylamine as substrate incubated for 30 mins prior to 6 hrs of dialysis at 3 hrs interval relative to control; details: 6.5 h

## C#CCN(C)Cc1ccccc1 [PARGYLINE]
[1]
  Activity: 25.93%
[2]
  Activity: 27.96%
